pIC50: −log10 of the molar value.
Target: recombinant, human protein tyrosine phosphatase (PTP) 1B (hPTP1B) (Homo sapiens, UniProt P18031)
Assay: Inhibition of Tri-Phosphorylated Insulin Receptor Dodecaphosphopeptide Dephosphorylation by hPTP1B
Conditions: 50 μM IR triphosphopeptide substrate, 5 min at 37° C., pH 7.4

By UniProt entry, the sequences of proteins in these tests, tags left out. Where a name states a change or a piece, a line headed by the entry shows the natural chain unless it says otherwise.
UniProt P18031: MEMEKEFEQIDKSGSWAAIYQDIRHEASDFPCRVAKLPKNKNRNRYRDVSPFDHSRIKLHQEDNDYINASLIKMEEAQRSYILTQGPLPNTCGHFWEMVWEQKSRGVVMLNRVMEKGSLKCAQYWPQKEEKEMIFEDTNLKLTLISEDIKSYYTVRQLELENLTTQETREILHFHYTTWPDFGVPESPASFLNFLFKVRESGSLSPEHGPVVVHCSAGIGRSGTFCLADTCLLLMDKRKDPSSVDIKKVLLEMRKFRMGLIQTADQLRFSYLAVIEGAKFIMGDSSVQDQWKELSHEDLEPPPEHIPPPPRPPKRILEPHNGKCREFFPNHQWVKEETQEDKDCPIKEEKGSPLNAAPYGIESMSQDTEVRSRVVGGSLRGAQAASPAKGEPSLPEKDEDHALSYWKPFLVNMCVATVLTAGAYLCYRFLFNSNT

## Ammonium molybdate tetrahydrate
  pIC50: 5.06

From patent publication US6063815A, “Benzopenones useful in the treatment of insulin resistance and hyperglycemia” (American Home Products Corporation, priority 1999, dated 2000)
